Earlier results on 1 substance are cited in publication PMC10411393 (Journal of medicinal chemistry, 2022).

For the data set, the target named is Plk1. The settings on record: read-out: binding affinity (KD) against Plk1; cited from earlier work.

On to PLH*SpT, for which the Kd (as a rule, the free concentration of one partner at which half of the binding sites on the other are occupied at equilibrium, for simple one-to-one binding) is 1 to 2 nM.
